In ChEMBL document CHEMBL4808215, “Discovery of Selective Small-Molecule Inhibitors for the ENL YEATS Domain” (J Med Chem, 2021):

Biological target: T1, Protein AF-9 (Homo sapiens, UniProt P42568)
T1 sequence (P42568 whole entry): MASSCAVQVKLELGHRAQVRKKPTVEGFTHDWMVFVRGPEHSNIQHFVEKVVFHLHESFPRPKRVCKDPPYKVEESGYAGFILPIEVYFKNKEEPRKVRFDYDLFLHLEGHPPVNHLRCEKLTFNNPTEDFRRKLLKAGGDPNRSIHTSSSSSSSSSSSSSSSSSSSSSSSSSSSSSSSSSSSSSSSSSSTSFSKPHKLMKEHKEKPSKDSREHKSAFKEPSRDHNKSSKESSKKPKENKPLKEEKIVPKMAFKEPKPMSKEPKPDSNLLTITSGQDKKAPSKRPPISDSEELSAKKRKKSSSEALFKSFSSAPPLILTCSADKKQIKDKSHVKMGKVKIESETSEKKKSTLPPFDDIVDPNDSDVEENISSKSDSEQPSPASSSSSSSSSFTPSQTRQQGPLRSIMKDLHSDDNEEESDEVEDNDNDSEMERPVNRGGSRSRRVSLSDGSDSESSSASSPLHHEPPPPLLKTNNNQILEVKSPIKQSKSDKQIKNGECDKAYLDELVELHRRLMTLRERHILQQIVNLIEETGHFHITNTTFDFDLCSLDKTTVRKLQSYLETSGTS
Test: Inhibition of human His-AF9 YEATS domain and biotinylated H3K9ac peptide interaction by AlphaScreen assay
Method in brief: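 His-tagged YEATS domains were expressed in E. coli Rosetta-2 (DE3) pLysS and purified on Ni-NTA. Partners were biotinylated peptide on streptavidin donor and Ni2+-chelate acceptor beads: AF9 30 nM with H3K9ac, GAS41 100 nM with H3K27ac, YEATS2 100 nM with H3K27cr. Peptides at 30 nM, buffer 50 mM HEPES pH 7.4, 100 mM NaCl, 0.1% BSA, 0.05% CHAPS. Thirteen-point 3-fold series from 54 μM to 0.1 nM, 4–6 replicates, signal normalised to no-compound control, four-parameter fit.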

O=C(NCc1ccc(CN2CCC2)cc1)c1ccc2nncn2c1
IC50: 0.984 µM
